This note sets out measurements from paper PMC6646369, “A new bioavailable fenretinide formulation with antiproliferative, antimetabolic, and cytotoxic effects on solid tumors” (Cell Death & Disease, 2019).

The assay deals with LCSC6 lung cancer spheroid cells. Put plainly: Cell viability assay (CellTiter-Glo). Format: cell-based, human. The conditions noted are these: LCSC6, 48 hours; SA 2, 4, 6 µM; GT11 0,5, 2, 5 µM. The protocol:
Cell viability upon treatment with NanoFEN, zVAD, NAC, 3-MA, Myriocin, PPMP, GT11, SA and Rapamycin was determined by CellTiter-Glo luminescent cell viability assay (Promega, Madison, WI, USA) according to the manufacturer’s directions. Briefly, lung and colorectal spheroids were dissociated mechanically or with TrypLE Express (Thermo Fisher Scientific) respectively and seeded 3 × 10^3 per well in 96-well plates (three replicates per experimental point) in serum-free medium, and incubated in a humidified atmosphere at 37 °C, 5% CO2. Cells were treated with the respective compounds and analysed after the appropriate time period as described in detail in Figure Legends. Luminescence was detected with a DTX880 multimode microplate reader (Beckman Coulter, Brea, CA, USA).
Background: ATP-based viability assays read luminescence as a measure of living cells.

Regarding `CCCCCCCCCCCCCC1=C([C@H](O)[C@@H](CO)NC(=O)CCCCCCC)C1` [GT11, N-[(1R,2S)-2-hydroxy-1-hydroxymethyl-2-(2-tridecyl-1-cyclopropenyl)ethyl]octanamide], the cell viability entry was “dose-dependent viability decrease”.
